Screens from PubChem.
In the library only some 2.2% were active in any assay of this set; here they are far more common.
Yeast UUG start – alters start codon recognition fidelity in yeast | S. cerevisiae UUG-firefly luciferase reporter, luminescence/redox ratio | activity score, % at 18.7 µM | hit rate 0.13% among 350,000 | AID 602363;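 active means replicate mean at a twofold rise or more, about +100% in these data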;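 further: firefly luciferase made from a UUG start codon reports start codon fidelity; reporter light over untreated wells divided by growth signal over untreated wells; some hits fall short of that in this replicate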
PDI inh – inhibitors of human protein disulfide isomerase; PDI insulin aggregation turbidity, A650, 90 min; inhibition, % at 10 µM; P07237; AID 588391; 0.052% of 350,000 active;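 active = mean inhibition across replicates of 30% or more, whatever share of single replicates reach that level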
FGF22 binding – binders of recombinant human FGF22 by thermal shift | activity (Tm shift, normalised), % at 9.99 µM | 1.5% of 340,000 active | SYPRO orange fluorescence; percent of sucrose octasulfate shift, DMSO zero | Q9HCT0 | AID 651658;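 active = mean Tm shift, scaled 0 neutral to 100 positive control, at about 1.3% or above, every replicate too, limit read from the data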
S100A4 inh HTS – inhibitors of human S100A4 binding to myosin IIA peptide; P26447; S100A4/TAMRA-MyoIIA peptide fluorescence polarization; inhibition, % at 10.7 µM; 0.14% of 360,000 active; AID 652163;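 active = mean inhibition of at least 70% across replicates, with every replicate also reaching that level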
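Material: human S100A4 monomer with TAMRA-labelled myosin IIA peptide; buffer or medium: HEPES pH 7.2 with CaCl2, KCl, NaCl, DTT, Triton; compound dosing: one concentration per compound; schedule: 5 min incubation before reading; benchmarks: neutral control DMSO, positive control TFP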
ERp5 block – inhibitors of human ERp5 | AID 651711 | 0.05% of 350,000 active | inhibition, % at 9.99 µM | ERp5 insulin aggregation, absorbance 650 nm, 90 min | Q15084;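 active = mean replicate inhibition above about 25%, with every replicate also reaching it, limit read from the data, passing the limit was not always enough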
SIRT5 inh – sirtuin-5 (human) deacylase inhibition; Q9NXA8; Purified SirT5, succinyl-peptide AMC, trypsin-coupled fluorescence; inhibition, % at 15 µM; 1.1% of 330,000 active; AID 652115; in the data active = inhibition above about 15%
* = called active by the depositor; · = no result; ! = a repeat was not active.

1. C[C@H](CO)N1C[C@H](C)[C@H](CN(C)Cc2ccc(C(=O)Nc3ccccc3N)cc2)Oc2ccc(NC(=O)CCC(F)(F)F)cc2C1=O
2. CC1(C)CC(NCCN2CCN(C3=CC(=C(C#N)C#N)CC(C)(C)C3)CC2)=CC(=C(C#N)C#N)C1
3. NC(=NCCc1ccccc1)NS(=O)(=O)c1cccs1
4. C[C@@H]1CCCCO[C@H](CN(C)S(=O)(=O)c2ccc(Cl)cc2)[C@H](C)CN([C@@H](C)CO)C(=O)c2cc(NS(=O)(=O)c3ccccc3)ccc2O1
5. C[C@@H]1CN([C@@H](C)CO)C(=O)c2cc(NS(=O)(=O)c3ccccc3)ccc2O[C@@H](C)CCCCO[C@H]1CN(C)S(=O)(=O)c1ccc(Cl)cc1
6. C[C@@H]1CCCCO[C@@H](CN(C)S(=O)(=O)c2ccc(Cl)cc2)[C@H](C)CN([C@@H](C)CO)C(=O)c2cc(NS(=O)(=O)c3ccccc3)ccc2O1

| screen / no. | 1 | 2 | 3 | 4 | 5 | 6 |
| --- | --- | --- | --- | --- | --- | --- |
| Yeast UUG start | 15 | · | · | · | · | · |
| PDI inh | · | 5 | -8 | · | · | · |
| FGF22 binding | 0 | 45* | 43* | 0 | 0 | 0 |
| S100A4 inh HTS | 6 | -2 | -2 | -9 | -5 | -6 |
| ERp5 block | 4 | -6 | 3 | 14 | -9 | 6 |
| SIRT5 inh | 7 | -4 | -6 | 16* | 16* | 21* |

7. CN(C)C(=O)c1ccc(-c2ccc([C@@H]3[C@@H](CO)N4CCCCN(C(=O)C5CCCC5)C[C@H]34)cc2)cc1
8. O=C(NCCc1ccccc1)C1c2ccccc2C(=O)N1Cc1cccs1 (stereo unspecified)
9. C[C@@H]1CN([C@@H](C)CO)C(=O)c2cc(NC(=O)C3CC3)ccc2O[C@@H]1CN(C)Cc1ccncc1
10. CC(=O)N1CCC2(CC1)C/C(=N\NC(=S)Nc1ccccc1C)c1cc(O)ccc1O2
11. Cc1ccc(S(=O)(=O)N[C@@H]2CC[C@@H](CC(=O)N3CCN(c4ccccc4)CC3)O[C@@H]2CO)cc1
12. CN(C)CCCNC(=O)C[C@@H]1C=C[C@H](NS(=O)(=O)c2ccccc2)[C@@H](CO)O1

| screen / no. | 7 | 8 | 9 | 10 | 11 | 12 |
| --- | --- | --- | --- | --- | --- | --- |
| Yeast UUG start | 11 | -18 | -1 | -31 | 6 | 7 |
| PDI inh | · | 3 | · | 1 | · | · |
| FGF22 binding | 0 | 0 | 1 | 0 | 0 | 0 |
| S100A4 inh HTS | -1 | -2 | -12 | -2 | 6 | -1 |
| ERp5 block | 1 | -5 | -1 | 2 | 1 | -3 |
| SIRT5 inh | 3 | 34* | -3 | 21* | 24* | 15* |

13. COc1ccccc1S(=O)(=O)N[C@H]1CC[C@H](CC(=O)N2CCN(C)CC2)O[C@@H]1CO
14. CN(C)CCCNC(=O)C[C@@H]1C=C[C@@H](NS(=O)(=O)c2ccccc2)[C@H](CO)O1
15. Cc1ccc(S(=O)(=O)N[C@@H]2C=C[C@H](CC(=O)N3CCN(c4ccccc4)CC3)O[C@@H]2CO)cc1
16. COc1ccccc1S(=O)(=O)N[C@@H]1CC[C@@H](CC(=O)N2CCN(C)CC2)O[C@@H]1CO
17. C[C@@H]1CN([C@H](C)CO)C(=O)c2cccc(NC(=O)c3nc4ccccc4s3)c2O[C@H]1CN(C)Cc1ccc(C(F)(F)F)cc1
18. COc1ccc(NC(=O)N(C)C[C@H]2Oc3c(NC(=O)c4nc5ccccc5s4)cccc3C(=O)N([C@@H](C)CO)C[C@H]2C)cc1

| screen / no. | 13 | 14 | 15 | 16 | 17 | 18 |
| --- | --- | --- | --- | --- | --- | --- |
| Yeast UUG start | 17 | 2 | -3 | -8 | -13 | -1 |
| PDI inh | · | · | · | · | · | 0 |
| FGF22 binding | 0 | 0 | 0 | 0 | 0 | 0 |
| S100A4 inh HTS | 128* | 4 | -12 | -51 | -3 | 1 |
| ERp5 block | 1 | -1 | -6 | 3 | 3 | -3 |
| SIRT5 inh | 4 | -1 | 25* | -2 | 20* | 20*! |

19. C[C@H](CO)N1C[C@H](C)[C@H](CN(C)Cc2ccccc2)Oc2c(NC(=O)c3nc4ccccc4s3)cccc2C1=O
20. C[C@H]1CN([C@@H](C)CO)C(=O)c2cccc(NC(=O)c3nc4ccccc4s3)c2O[C@H]1CN(C)Cc1ccc(C(F)(F)F)cc1
21. C[C@@H]1CN([C@@H](C)CO)C(=O)c2cc(NC(=O)CCCCCC(=O)Nc3ccccc3N)ccc2O[C@@H](C)CCCCO[C@@H]1CN(C)C(=O)Nc1ccc(C(F)(F)F)cc1
22. Cc1cc(C)nc(SCCn2c(N3CC(C)OC(C)C3)nc3c2c(=O)n(C)c(=O)n3C)n1 (stereo unspecified)
23. COC(=O)c1sc(-c2ccccc2)cc1NC(=O)C1CC1
24. CCOc1ccc(NC(=O)Nc2cc(-c3ccccc3)sc2C(=O)OC)cc1

| screen / no. | 19 | 20 | 21 | 22 | 23 | 24 |
| --- | --- | --- | --- | --- | --- | --- |
| Yeast UUG start | 4 | 7 | 13 | · | · | -18 |
| PDI inh | · | · | · | 1 | -2 | 9 |
| FGF22 binding | 0 | 0 | 0 | 44* | 41 | 0 |
| S100A4 inh HTS | -47 | 10 | 10 | 1 | -2 | -3 |
| ERp5 block | -8 | 1 | -3 | -1 | -7 | 4 |
| SIRT5 inh | 1 | 27* | 1 | -4 | -9 | 16* |

25. CCN1C/C(=C/c2ccc(OC)c(O)c2)C(=O)/C(=C/c2ccc(OC)c(O)c2)C1
26. COc1ccc(/C=C2\CN(Cc3ccccc3)C/C(=C\c3ccc(OC)c(O)c3)C2=O)cc1O
27. C[C@@H]1CN([C@@H](C)CO)C(=O)Cc2cc(NC(=O)Nc3ccc(C(F)(F)F)cc3)ccc2O[C@H]1CN(C)C(=O)Nc1ccccc1
28. COc1ccc(NC(=O)N/C=C/c2ccco2)cc1
29. O=C(N/C=C/c1ccco1)Nc1cccc(Cl)c1
30. CCS(=O)(=O)N1CCC2(CC1)CN(C(=O)Nc1cccc(F)c1)[C@H](CO)c1c2c2ccc(OC)cc2n1C

| screen / no. | 25 | 26 | 27 | 28 | 29 | 30 |
| --- | --- | --- | --- | --- | --- | --- |
| Yeast UUG start | · | -5 | 2 | -10 | -4 | · |
| PDI inh | 4 | 54* | · | 2 | 5 | · |
| FGF22 binding | 0 | 0 | 0 | 43* | 0 | 0 |
| S100A4 inh HTS | 1 | 3 | -11 | -3 | -14 | -1 |
| ERp5 block | 1 | 0 | 11 | 3 | 3 | 12 |
| SIRT5 inh | -2 | -3 | 3 | 1 | 2 | 4 |

31. Cc1oc(-c2cccc(Cl)c2)nc1CS(=O)(=O)CC(=O)NCc1ccco1
32. CCCC(=O)Nc1ccc2c(c1)C(=O)N(C)[C@H]1CC[C@@H](CC(=O)NCc3ccccc3Cl)O[C@H]1CO2
33. CCCc1cn([C@H]2C[C@@H]3O[C@H](CO)CC[C@@H]3O[C@@H]2CCc2ccc(-c3ccccc3C#N)cc2)nn1
34. O=C(CCCl)Nc1nnc(SCC(=O)NC2CCCC2)s1
35. O=S(=O)(Nc1nc2ccccc2nc1OCC(F)(F)F)c1cccs1
36. COc1ccc(Nc2nc3ccccc3nc2NS(=O)(=O)c2cccs2)cc1

| screen / no. | 31 | 32 | 33 | 34 | 35 | 36 |
| --- | --- | --- | --- | --- | --- | --- |
| Yeast UUG start | -3 | 20 | · | -22 | -25 | -18 |
| PDI inh | -4 | · | · | -2 | -2 | 10 |
| FGF22 binding | 1.5* | 0 | · | 0 | 45* | · |
| S100A4 inh HTS | 4 | -8 | 9 | 0 | 0 | · |
| ERp5 block | -3 | -3 | 6 | 2 | 11 | · |
| SIRT5 inh | -3 | 8 | 1 | 60* | -3 | · |

37. C[C@@H]1CN([C@H](C)CO)C(=O)c2cc(C3=CCCCC3)cnc2O[C@@H]1CN(C)C(=O)c1ccccn1
38. CCOc1ccc(C(C)C)cc1S(=O)(=O)N1CCOCC1
39. CC(=O)Nc1ccc(S(=O)(=O)Nc2ccc(-n3cnnn3)cc2)cc1
40. O=S(=O)(Nc1cccc(-n2cnnn2)c1)c1ccc(Cl)nc1

| screen / no. | 37 | 38 | 39 | 40 |
| --- | --- | --- | --- | --- |
| Yeast UUG start | -10 | · | -5 | -9 |
| PDI inh | · | 0 | 4 | 2 |
| FGF22 binding | 0 | 43* | 0 | 0 |
| S100A4 inh HTS | 9 | -2 | 1 | -2 |
| ERp5 block | 3 | -3 | -3 | 7 |
| SIRT5 inh | 6 | 0 | 23* | 2 |

Compounds 38–40, quoted:
38. CCOc1ccc(C(C)C)cc1S(=O)(=O)N1CCOCC1
39. CC(=O)Nc1ccc(S(=O)(=O)Nc2ccc(-n3cnnn3)cc2)cc1
40. O=S(=O)(Nc1cccc(-n2cnnn2)c1)c1ccc(Cl)nc1

| screen / no. | 38 | 39 | 40 |
| --- | --- | --- | --- |
| Yeast UUG start | · | -5 | -9 |
| PDI inh | 0 | 4 | 2 |
| FGF22 binding | 43* | 0 | 0 |
| S100A4 inh HTS | -2 | 1 | -2 |
| ERp5 block | -3 | -3 | 7 |
| SIRT5 inh | 0 | 23* | 2 |
